# Data as given in PubChem BioAssay AID463215 (Sanford-Burnham Center for Chemical Genomics, 2010).
# The entries are a selection whose mix differs from that of the whole data set. Activity calls are given as the source filed them.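 How the source made its calls: active means inhibition of yeast growth at or above a set limit in either of two replicates at 10 µM; inactive means the rest.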
# Experiment: TIM10 isogenic control strain growth inhibition – single concentration, luminescence, S. cerevisiae, counter-screen for tim10-1 synthetic lethality project, confirmation (AID 463215);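 further: isogenic wild-type TIM10 control yeast grown in succinate dextrose medium; this counterscreen used the strain with wild-type TIM10; 0% = yeast with DMSO and 100% = medium wells lacking yeast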
# Conditions: BacTiter-Glo luminescence, 24 h, at 10 µM, hits give high values
row,Structure (SMILES),inhibition
1,O=[N+]([O-])c1cc([N+](=O)[O-])c(CCNc2ccccc2)c([N+](=O)[O-])c1,active: 72.5%
2,CN(C)C(=O)c1cc([N+](=O)[O-])cc2c1-c1c(cc([N+](=O)[O-])cc1[N+](=O)[O-])C2=O,active: 91.3%
3,Cc1ccc(NCCc2c([N+](=O)[O-])cc([N+](=O)[O-])cc2[N+](=O)[O-])cc1,inactive: 6.65%
4,O=[N+]([O-])c1cc([N+](=O)[O-])c(-c2ccn[nH]2)s1,active: 81.7%
